# Measured values reported in patent publication US11578265B2, “AIEgens for cancer cell imaging” (THE HONG KONG UNIVERSITY OF SCIENCE AND TECHNOLOGY, priority 2016, dated 2023).
# Columns and labels:
# [1] = Parameters and concentration-dependent emission of mAb-dye conjugates; format: physicochemical
# [2] = test system: normal cells (mouse embryo NIH 3T3, Canis familiaris kidney MDCK.2, and monkey kidney COS-7); assay: Background signals from normal cells with mAb-dye conjugates; format: cell-based; conditions: 10 μg/mL, 12 hours, after washing
# Method: The background signals from normal cells were also checked. Different normal cells (mouse embryo NIH 3T3, Canis familiaris kidney MDCK.2, and monkey kidney COS-7) with different levels of EGFR expression were incubated by mAb-dye conjugates for 12 hours (FIG. 35), and the images were taken after washing. […] The difference may be attributed to the “turn-on” property of the mAb-AIEgen conjugates controlled by antibody degradation.
# HEK-293 cells = assay: Wash-free cell imaging with mAb-dye conjugates; format: cell-based, human; conditions: HEK-293, 12 hours, 10 μg/mL
# From the text: Exposure time is 1 second for all pictures. Scale bars are 30 μm.
# The fluorescence of CSPP needed to be activated by high viscosity or a strong electrostatic interaction due to RIM. As such, it has potential to be used for wash-free cell imaging. HCC827 cells (human non-small lung cancer cells with EGFR overexpression) and HEK-293 cells (EGFR-negative human embryonic kidney cells) were used for cell imaging.
substance,measurement,setting,value
mAb-Cy3: commercial dye conjugated antibody (cetuximab labeled with Cy3) [reference compound],ε (molar absorptivity),[1],162000 L/mol/cm
same,λabs,[1],550 nm
same,λem,[1],567 nm
same,fluorescence at high conjugate concentration,"[1]; in PBS, versus probe concentration",became weaker at a high concentration
same,fluorescence in normal cells,[2],some fluorescent signals
same,fluorescence and background without washing,HEK-293 cells,background was too strong
